Results: US6077822A, “Drug salts” (Dumex-Alpharma A/S, priority 1993, dated 2000)

What was measured:
[1] = reaction of the salts with water
[2] = 250 mg in 25 ml ion-exchanged water, 5% NaH2PO4 buffer pH 4.3 and 0.01 M HCl, 37±0.5° C.
[3] = in vivo; cited from earlier work

Substance	solubility in water of the viscous fluid formed with water [1]	solubility [2]	effect of increased pH of the stomach on bioavailability / dissociation and absorption [3]
Gentamycin Salt of Sucrose-octa-O-sulfonic Acid [Example 9]	comparatively low solubility in water		
Kanamycin A Salt of Sucrose-octa-O-sulfonic Acid [Example 7]	comparatively low solubility in water	low solubility in water	
Kanamycin/aluminium Salt of Sucrose-octa-O-sulphonic Acid [Example 13]	comparatively low solubility in water		
doxycyclin carrageenate [doxycyclin carregeenate]			independent of pH
